Results taken from ChEMBL document CHEMBL1138075, “The neuroprotective activity of GPE tripeptide analogues does not correlate with glutamate receptor binding affinity” (Bioorg Med Chem Lett, 2006).

Molecular target: Glutamate NMDA receptor
Assay: Displacement of L[3H]glutamate from GluR in rat brain synaptic membrane
Type: cell membranes
Procedure, shortened: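 Competitive radioligand binding to glutamate receptors: displacement of L-[³H]glutamate from rat brain synaptic membranes, with test concentrations up to 100 μM.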

Ki: 7.96 µM
Compound: C[C@@]1(C(=O)N[C@@H](CCC(=O)O)C(=O)O)CCCN1C(=O)CN (stereo in doubt; 7) [TROFINETIDE]
